# In patent US6429286B1, “Immunoregulatory molecules for costimulatory signal transduction” (priority 1997, dated 2002):
# What was measured:
# [1] = tested on: anti-mouse CTLA-4 monoclonal antibody; assay: ELISA: reactivity of plate-coated phage clones with the anti-mouse CTLA-4 monoclonal antibody; format: binding, hamster; settings: phage 4x10^9 virions/well, antibody 200 ng/ml, FIG. 2 and 3
# Procedure: The obtained 58 phage clones were subjected to primary screening with ELISA. A 96 well ELISA plate (Sumitomo Bakelite, Tokyo) was coated with each phage (4×10^9 virions/well/40 μl) purified as described by Smith et al. (G. P. Smith, Method in Enzymology, Vol. 217, p.228-257 (1993), Academic Press) at 4° C. overnight. The plate was washed with TBST and was blocked with 100 μl/well of 50 mM Tris-HCl, pH 7.5, 150 mM NaCl supplemented with 0.02% NaN3 and 1% BSA at room temperature for 2 hours. After washing with TBST, the plate was added with the anti-mouse CTLA-4 monoclonal antibody (200 ng/ml/well/100 μl) and reacted at room temperature for 1 hour. After washing with TBST; the plate was reacted with anti-hamster IgG antibody (Zymet, California) labeled with alkaline phosphatase diluted to 250-fold with TBS at room temperature for 1 hour. After washing, the plate was added with the substrate sodium p-nitrophenylphosphate hexahydrate (Wako Junyaku, Osaka) was added and absorbance at 405 nm was measured.
# Whether each of the motifs as shown in Example 4 specifically binds to the anti-mouse CTLA-4 monoclonal antibody was investigated. A degree of specificity was determined by ELISA as described in Example 3. As a negative control, anti-mouse CD28 antibody (Phamingen, San Diego), having the same isotype with the anti-mouse CTLA-4 monoclonal antibody, and hamster IgG were used. […]
# T cells (spleen cells) = assay: T cell growth, [3H]-thymidine take-up by spleen cells of mice primed with W. T. phage; format: cell-based, BALB/c mice; settings: phage 0.015 to 5 μg/ml, three days culture, FIG. 4
# Procedure: BALB/c mice (6 weeks old; four animals per group) were used in an experiment and the phages were purified as described by Smith et al. (G. P. Smith, Method in Enzymology, Vol. 217, p.228-257 (1993), Academic Press). An amount of the phages was measured using protein assay kit (BioRad) with bovine serum albumin as a standard and expressed as a protein concentration.
# First, for antigen, stimulation, BALB/c mice were administered intraperitoneally with 10 μg (200 μl/PBS) of phage (W. T.) not expressing pIII protein. Four weeks after the administration, spleen cells were removed from each mouse in the usual manner. The spleen cells were added to each well of 96-well culture plate at 1.5×10^5 cells/well. To each well was added purified W. T. or phages expressing any of F1 to F6 sequence at a final concentration of 0.015 to 5 μg/ml to make a total volume of 200 μl (RPMS 1640 medium containing 10% FCS) Triplicates were used for each sample. After incubating these samples on ice for 30 minutes, the cells were cultured under condition of 5% CO2 at 37° C. for three days. Eighteen hours before completion of culture, the cells were pulse-labeled with [^3H]-thymidine (0.5 μCi/well). The cells were harvested with a cell harvester and a take-up of [^3H]-thymidine was measured with a liquid scintillation counter.
substance,measurement,setting,value
Ala Cys Val Met Tyr Asp Phe Val Leu Arg Gly Met Cys Ala Arg,reactivity with anti-mouse CTLA-4 monoclonal antibody,[1],reacted weakly
same,growth of T cells as compared to W. T. phage,T cells (spleen cells),approximately equivalent to that with W. T. phage
